Experimental data taken from ChEMBL document CHEMBL5506044, “Ligandability Assessment of IL-1β by Integrated Hit Identification Approaches” (J Med Chem, 2024).
Values belong to the compound of their own block, whether it stands above or below them. The source made the active and inactive calls. The rule behind the calls is not given here.

Tests used:
[1] = target: T1, Interleukin-1 beta (Homo sapiens) (UniProt P01584); experiment: Binding affinity to human IL-1 beta upto 1 mM by 2D[13C, 1H]-HMQC NMR spectroscopy
T1 sequence (whole entry): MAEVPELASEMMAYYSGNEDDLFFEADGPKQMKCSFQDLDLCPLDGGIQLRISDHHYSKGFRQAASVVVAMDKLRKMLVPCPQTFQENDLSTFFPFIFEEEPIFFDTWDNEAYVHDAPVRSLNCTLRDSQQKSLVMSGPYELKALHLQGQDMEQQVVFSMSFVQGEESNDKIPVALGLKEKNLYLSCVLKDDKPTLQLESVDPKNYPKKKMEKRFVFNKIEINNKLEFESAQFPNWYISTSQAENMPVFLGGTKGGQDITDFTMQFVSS

[2] = target: T1, Interleukin-1 beta (Homo sapiens); experiment: Binding affinity to human IL-1 beta expressed in Escherichia coli BL21 (DE3) assessed as on-rate constant by 2D NMR titration based analysis; settings: filed as antagonist
[3] = target: T1, Interleukin-1 beta (Homo sapiens); experiment: Binding affinity to human IL-1 beta by 2D[13C, 1H]-HMQC NMR spectroscopy; settings: filed as antagonist
[4] = target: T1, Interleukin-1 beta (Homo sapiens); experiment: Binding affinity to human IL-1 beta assessed as protein-compound covalent conjugate formation at 50 pmol preincubated for 1 hr followed by incubation with NaCNBH3 and measured after 1 hr by mass spectrometry; settings: filed as antagonist, time 2.0 hrs

Activity [1]: inactive
Structure (SMILES): CC(C)c1cccc(-c2cc(C(=O)O)cn3cc(C(=O)N4CCN(S(=O)(=O)c5ccccc5)CCC4C(=O)NCCN4CCOCC4)nc23)c1 (centres undefined)

K [2]: 2.7 10^5/M/s
Structure (SMILES): O=C1Nc2cc(C(F)(F)F)ccc2[C@]1(O)c1cc(Cl)ccc1O

Activity [3]: Active
Structure (SMILES): OC(c1ccc(OC(F)F)cc1)(c1cccc(Br)c1)c1cc[nH]n1 (racemic)

Activity [4]: Active
Structure (SMILES): CC(C)c1cc(-c2cc(C(=O)O)cn3cc(C(=O)N4CCN(S(=O)(=O)c5ccccc5)CCC4C(=O)NCCN4CCOCC4)nc23)ccc1C=O (racemic)
